According to patent US20180066031A1, “ENZYMATICALLY-CLEAVABLE PEPTIDE AMPHIPHILES” (The University of Chicago, priority 2016, published 2018):
Entries after “also recorded” stand apart in the source; their conditions may differ.

What was measured:
[1] = Critical micelle concentration (DPH fluorescence); type: physicochemical; conditions: PAs with FAM and Tamra moved out of FRET overlap range
Protocol: CMC was performed as described in Ref. B67; incorporated by reference in its entirety. A range of PA concentrations (from 512 μM to 0.01 μM in half increments) were prepared in a 1 μM DPH aqueous solution and equilibrated for 1 hour at room temperature. Solutions were plated in triplicates in a black 96-well plate and their fluorescent intensity was measured using Tecan Infinite M200 PRO plate reader (Mannedorf, Switzerland). Data were fit with two trend lines for low and high intensity measurements and CMC was calculated as the inflection point where the two trend lines meet (Ref. B68; incorporated by reference in its entirety).

[2] = tested on: HeLa cells; assay: Intracellular cleavage and trafficking of FRET PAs after 1 hour pulse (confocal and superresolution microscopy); type: cell-based; conditions: for Cellular internalization: 1 hour pulse; for Relative amount of intracellular p53(14-29) peptide (Tamra intensity): 6 hours; for FRET signaling / FRET efficiency from 6 hours to 24 hours: washed after 1 hour, superresolution confocal; for FRET signaling in cells: 1 hour incubation then wash, followed for 6 hours
Protocol: (§1) HeLa cells were maintained in DMEM (Invitrogen) supplemented with 10% FBS, 100 U ml^−1 penicillin/streptomycin, 2 mM L-glutamine, and 0.1 mM MEM nonessential amino acids. Cells were grown at 37° C., humidified atmosphere and 5% CO2. Cells were allowed to attach on the surfaces overnight (12 h).
(§2) HeLa cells were incubated with 2.5 μM PAs and 0.1 μM transferrin (Alexa Fluor 647 labeled, Thermo Fisher Science) for 1 hour in Advanced DMEM (Invitrogen) supplemented with 1% FBS. The media was then removed and cells were washed and either fixed immediately with 4% paraformaldehyde in PBS for 10 minutes at room temperature, or replaced with new peptide-free media and cells were allowed to incubate for another 1, 2, or 5 hours before being fixed. The fixed cells were then washed and left in PBS before being imaged. For accumulation experiments, 10 μM PAs were incubated individually and left on the cells for 24 h and the confocal images were taken in different time periods from live cells.
Images were taken by Marianas Yokogawa type spinning disk (inverted confocal microscope). The following lasers were used: (1) green: λexc=488 nm, filter: green; (2) Red: λexc=565 nm, filter: red; (3) Transferrin: λexc=640 nm, filter: far red; (4) FRET channel: λexc=488 nm, filter: red. Superresolution images were taken on a Leica SP5 II STED-CW Superresolution Laser Scanning Confocal Microscope. All imaging was performed at the Integrated Light Microscope Core Facility at the University of Chicago. Images were analyzed by ImageJ software.
To better understand trafficking of p53(14-29) inside cells, FRET capable PA constructs were used (FIG. 3). HeLa cells were pulsed with 2.5 μM PA for 1 hour and washed rather than allow for continuous PA exposure that would complicate our visualization of catB-mediated cleavage and intracellular trafficking. […] Each was taken in through endocytosis with substantial compartmental co-localization with transferrin-positive intracellular vesicles, reflective of early and late endosomal trafficking (FIG. 6). Despite most intact PAs being associated with transferrin-positive early endosomes, there was also evidence of dissociation and movement of diC16 out of these endosomes and into other areas of the cell as early as 1 hour following treatment with diC16-VC-PABA-p53(14-29) (FIG. 6). Transferrin labels early endosomes that ultimately transition to sorting endosomes or endocytic recycling compartments where transferrin is released from the transferrin receptor at low pH (Refs. B52-B54; incorporated by reference in their entireties). Because this process can take as little as 10 minutes, it is unclear if these diC16 tail fragments were located within late endosomes or being recycled back to the cell surface (Ref. B54; incorporated by reference in its entirety). Regardless, unlike diC16-VC-PABA-p53(14-29), control diC16-GGG-p53(14-29) PAs were universally found in vesicles as one unit (FIGS. 5 and 6). Cleavage of p53(14-29) from diC16 and loss of FRET signal in cells treated diC16-VC-PABA-p53(14-29) occurred almost completely by 3 hours following incubation whereas FRET signal was retained in cells treated with diC16-GGG-p53(14-29) PAs (FIG. 5). p53(14-29) peptide appeared to accumulate in discrete locations within the cell by 6 hours in contrast to control PAs. Additionally, diC16-GGG-p53(14-29) PA treated cells lost overall intensity over time (FIG. 4).
To confirm that loss of FRET signal was due to cleavage of p53(14-29) from diC16 and not loss of FRET efficiency (e.g., due to loss of fluorescent intensity, photobleaching, etc.), HeLa cells were treated as above but with an increased PA concentration of 10 μM. Extracellular PA was washed away after 1 hour and cells were allowed to incubate for 6 and 24 hours followed by superresolution laser scanning confocal microscopy. Raw images were analyzed for FRET signaling at each time point comparing diC16-VC-PABA-p53(14-29) to diC16-GGG-p53(14-29) and non-treated cells (FIG. 7). […]

[3] = tested on: HeLa cells; assay: Intracellular accumulation of PAs under continuous incubation (confocal); type: cell-based; conditions: 10 μM PA, 16 and 24 hours
Protocol: as §1, §2
Images were taken by Marianas Yokogawa type spinning disk (inverted confocal microscope). The following lasers were used: (1) green: λexc=488 nm, filter: green; (2) Red: λexc=565 nm, filter: red; (3) Transferrin: λexc=640 nm, filter: far red; (4) FRET channel: λexc=488 nm, filter: red. […] Images were analyzed by ImageJ software. […]

| Substance | Critical micelle concentration (CMC) [1] | Cellular internalization ([2]; 2.5 μM PA) | Relative amount of intracellular p53(14-29) peptide (Tamra intensity) ([2]; 10 μM PA) | Intracellular p53(14-29) peptide levels (Tamra intensity) ([2]; 10 μM PA, by 24 hours) | FRET signaling / FRET efficiency from 6 hours to 24 hours ([2]; 10 μM PA) | FRET signaling in cells [2] | Intracellular accumulation of PA [3] | Time to almost complete cleavage of p53(14-29) from diC16 and loss of FRET signal ([2]; 2.5 μM PA, 1 hour pulse then wash, time following incubation) |
| --- | --- | --- | --- | --- | --- | --- | --- | --- |
| diC16-GGG-p53(14-29): non-cleavable control p53(14-29) peptide amphiphile: diC16 hydrophobic tail, GGG linker, FAM and Tamra fluorophores | 5.8 µM | equivalently internalized within one hour | similar | dropped significantly | no change | retained; also recorded: decreased but still remained | did not intracellularly accumulate over time | – |
| diC16-VC-PABA-p53(14-29): cleavable p53(14-29) peptide amphiphile: diC16 hydrophobic tail, VC-PABA catB-cleavable linker, FAM and Tamra fluorophores | 4.7 µM | equivalently internalized within one hour | similar | – | decreased | almost undetectable by 6 hours | far greater than non-cleavable control PAs | ≤ 3 h |
